Experimental data published in PubChem BioAssay AID588391 (Broad Institute, 2011).
This is a selection; strong and weak results do not stand in their true shares. Some structures show a salt or complex split into parts, the way the source records it. Activity calls are given as the source filed them.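 The calls were made as follows: active = mean inhibition across replicates of 30% or more, whatever share of single replicates reach that level; inconclusive = mean inhibition below 30% while every single replicate reaches 30%; inactive = the rest.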

The chains behind the UniProt entries cited, without tags or fusion partners.
UniProt P07237, whole entry: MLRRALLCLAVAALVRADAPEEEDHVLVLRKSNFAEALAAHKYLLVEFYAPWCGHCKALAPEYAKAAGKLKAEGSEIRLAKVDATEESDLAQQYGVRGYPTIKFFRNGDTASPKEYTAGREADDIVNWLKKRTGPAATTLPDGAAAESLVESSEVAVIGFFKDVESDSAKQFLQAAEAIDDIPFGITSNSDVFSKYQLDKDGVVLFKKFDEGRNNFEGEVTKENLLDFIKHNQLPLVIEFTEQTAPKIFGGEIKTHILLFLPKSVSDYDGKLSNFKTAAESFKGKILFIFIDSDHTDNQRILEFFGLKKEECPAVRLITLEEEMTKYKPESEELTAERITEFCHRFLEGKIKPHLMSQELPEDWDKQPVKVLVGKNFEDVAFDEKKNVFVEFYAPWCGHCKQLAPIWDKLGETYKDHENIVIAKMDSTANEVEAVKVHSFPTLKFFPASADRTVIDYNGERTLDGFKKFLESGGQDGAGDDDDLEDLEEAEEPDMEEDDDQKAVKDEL

These compounds were tested against Protein disulfide-isomerase (Homo sapiens) (UniProt P07237) (assay: blockers of PDI-driven insulin aggregation – biochemical, turbidity, single point, plate reader, primary screen (AID 588391;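 also: absorbance from insulin aggregation driven by PDI reduction with DTT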)). Conditions: A650, 90 min, at 10 µM, active compounds read high.

Compound	inhibition
CCOC(=O)c1ccc(NP(C)(=O)Oc2ccc(F)cc2)cc1 (stereo not given)	inactive: -2.65%
COc1ccc(OP(C)(=O)Nc2ccc(SC(F)(F)F)cc2)cc1 (stereo not given)	inactive: 2.96%
CP(=O)(Nc1ccccc1)Oc1ccc(F)cc1 (stereo not given)	inactive: -7.02%
O=[N+]([O-])c1cc([N+](=O)[O-])c(OC2CCCCC2O)c([N+](=O)[O-])c1 (stereo not given)	inactive: 4.45%
CCCCCOc1ccc(NP(C)(=O)Oc2ccc(Cl)cc2Cl)cc1 (stereo not given)	inactive: 15.3%
Cc1c([N+](=O)[O-])cc([N+](=O)[O-])c(Br)c1[N+](=O)[O-]	inactive: -0.076%
CCN(CC)CCCOC(=O)C(O)(c1ccccc1)C1CCCCC1 (stereo not given)	inactive: -1.83%
CP(=O)(Nc1ccccc1F)Oc1ccccc1 (stereo not given)	inactive: -3.78%
CC(C)c1ccc(OP(C)(=O)Nc2ccc(SC(F)(F)F)cc2)cc1 (stereo not given)	inactive: 5.92%
O=[N+]([O-])c1cc([N+](=O)[O-])c(Nc2ccc(Cl)cc2)c([N+](=O)[O-])c1	inactive: -3.13%
COc1ccc2c(c1O)-c1c(O)c(OC)cc3c1[C@H](C2)[N+](C)(C)CC3.O=[N+]([O-])c1cc([N+](=O)[O-])c([O-])c([N+](=O)[O-])c1[O-]	inactive: 0.935%
O=C(OC1CN2CCC1CC2)c1ccc([N+](=O)[O-])cc1 (stereo not given)	inactive: -1.84%
O=C(OCCN1CCN(CCOCc2ccccc2)CC1)C(O)(c1ccccc1)c1ccccc1	inactive: 12%
CCOP(C)(=S)SCC(=O)NC(C)(CC)C(=O)O (stereo not given)	inactive: 0.244%
CP(=O)(Nc1ccc(SC(F)(F)F)cc1)Oc1ccc(F)cc1 (stereo not given)	inactive: 0.372%
Cc1ccccc1NP(C)(=O)Nc1ccccc1C	inactive: 6.29%
CP(=O)(Nc1ccc2c(c1)OCCO2)Oc1ccccc1 (stereo not given)	inactive: 1.39%
CN(C)CCOC(=O)C(O)(c1ccccc1)C1CCCCC1 (stereo not given)	inactive: 10.8%
COc1ccc(NP(C)(=O)Oc2ccccc2OC)cc1 (stereo not given)	inactive: -0.0515%
COc1ccc(OP(C)(=O)Nc2cccc(Br)c2)cc1 (stereo not given)	inactive: 3.3%

Compound	inhibition
Cc1c(C(c2ccc3c(c2)OCO3)c2c(C)n(C)n(-c3ccccc3)c2=O)c(=O)n(-c2ccccc2)n1C.O=[N+]([O-])c1cc([N+](=O)[O-])c(O)c([N+](=O)[O-])c1	inactive: -8.24%
O=[N+]([O-])c1ccc(OP2(=O)COCCO2)cc1 (stereo not given)	inactive: 2.94%
Cc1cc(-c2cccc3ccccc23)c(C)cn1.O=[N+]([O-])c1cc([N+](=O)[O-])c(O)c([N+](=O)[O-])c1	inactive: 4.99%
O=[N+]([O-])c1cc([N+](=O)[O-])c(NCC2CCS(=O)(=O)C2)c([N+](=O)[O-])c1 (stereo not given)	inactive: 5.54%
CCOC(=O)c1ccc(NP(C)(=O)Oc2ccc(Cl)cc2)cc1 (stereo not given)	inactive: 1.17%
CP(=O)(OC12CC3CC(CC(C3)C1)C2)OC12CC3CC(CC(C3)C1)C2	inactive: -1.52%
COc1ccccc1OP(C)(=O)Nc1c(C)n(C)n(-c2ccccc2)c1=O (stereo not given)	inactive: 0.927%
O=C(OCCCN1CCCC1)C(O)(c1ccccc1)C1CCCCC1 (stereo not given)	inactive: 1.72%
CP(=O)(Oc1ccccc1)N1CCOC1=O (stereo not given)	inactive: 13.1%
CCc1ccc(OP(C)(=O)Nc2cccnc2)cc1 (stereo not given)	inactive: 5.9%
CCN(CC)CC(O)COC(=O)C(O)(c1ccccc1)C1CCCCC1 (stereo not given)	inactive: -4.47%
COc1ccc(OP(C)(=O)Nc2ccc(Br)cc2)cc1 (stereo not given)	inactive: -3.03%
CN(C)C(=O)c1c([N+](=O)[O-])cc([N+](=O)[O-])cc1[N+](=O)[O-]	inactive: 1.03%
CC(C)(C)c1ccc(OP(C)(=O)O)cc1	inactive: 1.24%
COc1ccccc1OP(C)(=O)Nc1ccccc1Br (stereo not given)	inactive: -0.91%
CP(=O)(Nc1ccc(Cl)cc1)Oc1ccc(F)cc1 (stereo not given)	inactive: 11.2%
COc1ccc(OP(C)(=O)Nc2ccccn2)cc1 (stereo not given)	inactive: 1.23%
CN(C)CCOC(=O)C(O)(c1ccccc1)C1CCCC1 (stereo not given)	inactive: 9.72%
COc1ccccc1OP(C)(=O)Nc1ccc(Br)cc1 (stereo not given)	inactive: -1.95%
CP(=O)(Nc1ccccn1)Oc1ccccc1 (stereo not given)	inactive: 0.612%

Compound	inhibition
COc1ccccc1OP(C)(=O)Nc1ccc(C)cc1C (stereo not given)	inactive: 4.26%
CCc1ccc(OP(C)(=O)O)cc1	inactive: -13.6%
O=[N+]([O-])c1cc([N+](=O)[O-])c(Nc2ccccn2)c([N+](=O)[O-])c1	inactive: -1.64%
Cc1c(NP(C)(=O)Oc2ccc(C(C)C)cc2)c(=O)n(-c2ccccc2)n1C (stereo not given)	inactive: -0.567%
COc1ccccc1OP(C)(=O)Nc1ccc(C)c(C)c1 (stereo not given)	inactive: 5.94%
COc1ccc(OP(C)(=O)Nc2ccccc2Br)cc1 (stereo not given)	inactive: 1.06%
O=C1C(O)=C([N+](=O)[O-])C(=O)C(O)=C1[N+](=O)[O-]	inactive: -1.49%
Cc1cc(C)cc(OP(C)(=O)Nc2cccc(C(F)(F)F)c2)c1 (stereo not given)	inactive: -0.655%
CP(=O)(OCCOc1ccccc1)OCCOc1ccccc1	inactive: -0.319%
CP(=O)(Nc1ccc(Cl)cc1Cl)Oc1ccccc1 (stereo not given)	inactive: 0.66%
CCCCCCCCCCCCCCCC1C[N+](C)(C)CCOP(C)(=O)O1 (stereo not given)	inactive: 9.41%
O=[N+]([O-])c1ccc2c(c1)C=Nc1ccccc1O2	inactive: 16.7%
CC(C)(C)c1ccc(OP(C)(=O)Nc2ccc(SC(F)(F)F)cc2)cc1 (stereo not given)	inactive: -4.18%
Cc1cccc(C)c1OP(C)(N)=O (stereo not given)	inactive: 5.49%
O=[N+]([O-])c1cc([N+](=O)[O-])c(Nc2cccnc2)c([N+](=O)[O-])c1	inactive: 0.514%
Cc1cc(C)cc(OP(C)(N)=O)c1 (stereo not given)	inactive: 7.59%
COc1ccccc1OP(C)(=O)Nc1cc(Cl)ccc1C (stereo not given)	inactive: 9.84%
COc1ccc(OP(C)(=O)Nc2cccc(F)c2)cc1 (stereo not given)	inactive: 0.664%
COc1ccccc1OP(C)(=O)Nc1ccc(C)cc1 (stereo not given)	inactive: 10.2%
Cc1ccc(NP(C)(=O)Oc2ccccc2)c(C)c1 (stereo not given)	inactive: 6.7%
